Molecules are shown by their SMILES.

The text below walks through data of patent publication US11918570B2, “Method of treatment for prevention of glucocorticoid toxicity and/or enhancement of muscle regeneration via neutrophil elastase inhibition” (The Research Foundation for The State University of New York, priority 2020, dated 2024).

In the assay the target is T1, Human NE (hNE) (Homo sapiens, UniProt P08246).
T1 sequence (P08246 30-267): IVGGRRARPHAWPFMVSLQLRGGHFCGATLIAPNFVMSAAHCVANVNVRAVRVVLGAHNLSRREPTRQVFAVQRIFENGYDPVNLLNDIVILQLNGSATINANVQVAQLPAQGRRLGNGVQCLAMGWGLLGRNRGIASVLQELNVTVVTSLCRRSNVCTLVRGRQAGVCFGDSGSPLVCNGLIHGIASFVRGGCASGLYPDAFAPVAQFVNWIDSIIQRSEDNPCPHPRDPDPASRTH
Put plainly: Human NE activity in vitro, cumulative elastase activity over time. The class given is biochemical. As to conditions: hNE incubated with various concentration of inhibitor; FIGS. 1A-1C. Here is the method: In FIGS. 1A-1C Human NE (hNE) was incubated for the indicated amount of time (X-axis) either alone (Control, black line) or in the presence of various concentration of inhibitor, as indicated in each graph (colored lines). The cumulative elastase activity detected over time is plotted.
Several methods for measuring elastase enzymatic activity are known in the art. Merely by way of example, elastase activity can be determined by measuring the fluorescence emitted by a fluorigenic peptide such as MeOSuc-Ala-Ala-Pro-Val-AFC or Suc-Ala-Ala-Ala-AMC. Fluorescence may be measured, for example, using a plate reader. Other suitable assays for measuring elastase activity will be known to the skilled person. These may include measuring the product generated by incubation with a fluorescently labelled peptide such as 5-FAM-Arg-Glu-Ala-Val-Val-Tyr or 5-FAM-Ala-Ala-Ala-Phe-Tyr-Asp using an instrument that detects the size of the fluorescently labelled probe.

With `CC(=O)C1=C(C)N(c2cccc(C(F)(F)F)c2)C(=O)N[C@@H]1c1ccc(C#N)nc1` [BAY-678], the “inhibiting human NE activity in vitro” value is given as “similarly potent”.
